Data from ChEMBL document CHEMBL4138091, “Quinazoline based α1-adrenoreceptor antagonists with potent antiproliferative activity in human prostate cancer cell lines” (Eur J Med Chem, 2017).

The chains behind the UniProt entries cited, without tags or fusion partners.
UniProt P35368, whole entry: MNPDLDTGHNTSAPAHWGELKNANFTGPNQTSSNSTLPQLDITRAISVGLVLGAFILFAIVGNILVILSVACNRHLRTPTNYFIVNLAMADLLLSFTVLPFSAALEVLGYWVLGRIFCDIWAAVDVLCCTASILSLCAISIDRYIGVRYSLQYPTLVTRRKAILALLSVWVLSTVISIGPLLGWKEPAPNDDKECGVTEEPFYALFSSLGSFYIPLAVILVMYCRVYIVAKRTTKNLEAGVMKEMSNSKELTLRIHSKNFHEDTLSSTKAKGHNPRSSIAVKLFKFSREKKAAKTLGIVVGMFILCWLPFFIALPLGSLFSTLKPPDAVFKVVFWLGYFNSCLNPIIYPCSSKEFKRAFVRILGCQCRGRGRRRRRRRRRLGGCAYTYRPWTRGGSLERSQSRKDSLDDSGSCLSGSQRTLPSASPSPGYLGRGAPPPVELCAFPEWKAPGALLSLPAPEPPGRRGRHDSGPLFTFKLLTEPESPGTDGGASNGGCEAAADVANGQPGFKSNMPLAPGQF

Molecular target: Alpha-1B adrenergic receptor (Homo sapiens, UniProt P35368)
Assay: Displacement of [3H]prazosin from human alpha1B adrenoceptor expressed in CHO cell membranes after 30 mins

Ki: 0.631 nM
SMILES: COc1cc2nc(N3CCN(C(=O)C4COc5ccccc5O4)CC3)nc(N)c2cc1OC (stereo unspecified) [DOXAZOSIN]
